Experimental data reported in patent publication US20260297105A1, “RAF-MEK PROTEIN COMPLEX MODULATORS AND METHODS OF USE THEREOF” (GANDEEVA THERAPEUTICS, INC., priority 2023, published 2026).

Protein sequences, listed by entry. Tags and fused reporters are not part of them.
UniProt Q02750, whole entry, looked up: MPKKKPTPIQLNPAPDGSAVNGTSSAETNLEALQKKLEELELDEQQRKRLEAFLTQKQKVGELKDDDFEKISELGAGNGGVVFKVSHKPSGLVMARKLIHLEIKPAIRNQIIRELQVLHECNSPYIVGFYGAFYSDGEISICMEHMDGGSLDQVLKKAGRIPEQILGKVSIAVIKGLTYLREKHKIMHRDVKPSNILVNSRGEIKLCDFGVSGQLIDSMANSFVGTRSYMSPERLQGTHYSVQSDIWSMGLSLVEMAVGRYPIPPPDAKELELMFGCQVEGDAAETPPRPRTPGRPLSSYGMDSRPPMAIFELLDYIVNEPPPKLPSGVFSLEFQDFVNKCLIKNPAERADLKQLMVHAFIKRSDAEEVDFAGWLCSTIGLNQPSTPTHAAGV

How the values were obtained:
BRAF-MEK1 = test: BRAF-MEK TR-FRET assay, stabilization of MEK1 and BRAF interaction; assay type: binding; settings: read-out: BRAF-MEK TR-FRET Assay (EC50, fold stabilization); 4 nM BRAF, 10 nM MEK, 100 μM ATP; 1 hr at 25° C.
From the text: (§1) Protein expression and purification: BRAF (445-723) with N-term His-tag and C-term StrepII tag was expressed using the Expi293 system (ThermoFisher) and purified using Strep-Tactin® XT-Superflow (IBA) chromatography. ERK1 (full-length) with N-term His-tag was expressed in Rosetta DE3 cells (Millipore) and purified using HisTrap HP (Cytiva) and Superdex 200 (Cytiva) column chromatography. Full-length MEK1 for TR-FRET assays with N-term His-tag was expressed in BL21DE3 cells (ThermoFisher) and purified using HisTrap HP (Cytiva) and Superdex 200 (Cytiva) column chromatography.
Efficacy of exemplary compounds in stabilization of MEK1 and BRAF interaction: Compound stabilization of BRAF-MEK interaction was evaluated using TR-FRET (Time Resolved Fluorescence Energy Transfer). The FRET assay consisted of His-tagged MEK1 (produced in-house), GST-tagged BRAF (SignalChem, B08-11G), Anti His-Tb Cryptate donor, and Anti GST-XL665 acceptor fluorophores (PerkinElmer) to generate FRET signal upon BRAF-MEK1 binding. […] TR-FRET was measured using Cytation5 microplate reader (Agilent) using Ex/Em=340/620 nm and Ex/Em=340/665 nm to determine the FRET ratio. Fold stabilization was calculated as FRET signal of treated well/DMSO control. […]

MEK1 = MEK1 (Homo sapiens, UniProt Q02750); test: MEK1 kinase cascade assay (ADP-Glo), inhibition of MEK1 kinase activity; assay type: biochemical; settings: read-out: BRAF ADP Glo kinase assay V3 (IC50); 25 nM BRAF, 6.25 nM MEK1, 0.5 μM ERK, 1 mM ATP; 20 min preincubation, 1 hr at 25° C.
From the text: as §1
Efficacy of exemplary compounds in inhibition of MEK1 kinase activity: The effect of compound MEK1 inhibition was evaluated using an ADP detection system for kinases, such as the ADP-Glo assay (Promega). The MEK1 kinase cascade assay consisted of 9 μL reaction volumes in 384-well white, opaque Optiplates (PerkinElmer). Compounds were prepared from DMSO stocks in assay buffer (10 mM HEPES pH 7.5, 5 mM MgCl2, 2 mM CHAPS, and 1 mM DTT) and preincubated with 25 nM BRAF for 20 mins at 25° C. prior to addition of 6.25 nM MEK1/0.5 μM ERK/1 mM ATP premix to initiate the kinase reaction. […] After a 1 hr incubation at 25° C., conversion of ATP to ADP was detected using ADP-Glo™ reagents according to the manufacturer's protocol. Luminescence was measured using a CLARIOstar microplate reader (BMG). […]

CNS(=O)(=O)Nc1cccc(CN2Cc3ncc(OC(=O)N(C)C)cc3OC2=O)c1F
EC50 (BRAF-MEK1): 200 to 1000 nM | IC50 (MEK1): 5 to 50 nM
